How the values were obtained:
D(2) dopamine receptor = D(2) dopamine receptor (Homo sapiens, UniProt P14416)
D(3) dopamine receptor = D(3) dopamine receptor (Homo sapiens, UniProt P35462); test: Displacement of [3H]7-OH-DPAT from human Dopamine receptor D3
D(4) dopamine receptor = D(4) dopamine receptor (Homo sapiens, UniProt P21917); test: Displacement of [3H]spiperone from human Dopamine receptor D4

Amino acid sequences for entries named in this document (tags omitted). Chains listed by the source or under a name are the forms on record and can include a tag or linker.
UniProt P14416, whole entry: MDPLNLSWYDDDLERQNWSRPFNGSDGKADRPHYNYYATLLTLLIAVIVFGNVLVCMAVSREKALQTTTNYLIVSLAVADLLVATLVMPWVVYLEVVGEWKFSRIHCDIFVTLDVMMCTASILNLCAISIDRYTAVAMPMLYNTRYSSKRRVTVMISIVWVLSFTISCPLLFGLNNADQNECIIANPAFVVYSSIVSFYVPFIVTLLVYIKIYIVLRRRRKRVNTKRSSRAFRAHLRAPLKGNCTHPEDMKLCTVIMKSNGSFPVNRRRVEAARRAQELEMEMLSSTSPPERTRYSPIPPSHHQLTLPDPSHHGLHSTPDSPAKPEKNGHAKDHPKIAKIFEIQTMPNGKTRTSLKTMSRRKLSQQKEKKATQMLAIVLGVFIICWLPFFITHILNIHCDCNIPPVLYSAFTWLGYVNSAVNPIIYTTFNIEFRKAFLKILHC
UniProt P35462, as listed by the source: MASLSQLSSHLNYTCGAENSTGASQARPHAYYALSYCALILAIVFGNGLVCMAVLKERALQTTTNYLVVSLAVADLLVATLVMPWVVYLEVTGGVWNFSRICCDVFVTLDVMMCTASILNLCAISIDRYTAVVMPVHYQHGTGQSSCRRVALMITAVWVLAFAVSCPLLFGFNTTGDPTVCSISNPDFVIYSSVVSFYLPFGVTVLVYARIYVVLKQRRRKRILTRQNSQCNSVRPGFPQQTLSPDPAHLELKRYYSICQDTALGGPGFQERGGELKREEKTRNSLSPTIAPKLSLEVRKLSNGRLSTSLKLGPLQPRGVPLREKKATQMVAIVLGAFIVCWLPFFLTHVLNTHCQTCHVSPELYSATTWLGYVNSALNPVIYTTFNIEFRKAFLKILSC
UniProt P21917, whole entry: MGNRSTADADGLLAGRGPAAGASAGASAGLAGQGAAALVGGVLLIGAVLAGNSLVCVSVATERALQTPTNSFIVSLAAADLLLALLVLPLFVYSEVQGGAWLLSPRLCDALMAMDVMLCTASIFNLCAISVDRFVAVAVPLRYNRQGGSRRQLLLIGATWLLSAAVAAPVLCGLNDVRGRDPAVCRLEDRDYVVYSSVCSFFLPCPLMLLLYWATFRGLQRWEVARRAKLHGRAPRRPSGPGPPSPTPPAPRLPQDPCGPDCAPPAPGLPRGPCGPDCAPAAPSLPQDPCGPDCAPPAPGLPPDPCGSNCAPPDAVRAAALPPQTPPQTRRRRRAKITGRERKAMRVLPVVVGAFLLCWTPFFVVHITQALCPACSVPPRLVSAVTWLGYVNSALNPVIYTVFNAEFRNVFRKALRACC

Row | pKi (D(2) dopamine receptor) | pKi (D(3) dopamine receptor) | pKi (D(4) dopamine receptor) | SMILES
1 | 7.58 | – | – | CN(CCCC(=O)c1ccc(F)cc1)CCCC(O)c1ccc(Cl)cc1 (stereo not drawn)
2 | – | 6.7 | 7.98 | O=C(CCCN1CCC(O)(c2ccc(Cl)cc2)C1)c1ccc(F)cc1 (stereo not drawn) [(+)-4-{3-(4-chlorophenyl)-3-hydroxypyrrolidin-1-yl}-1-(4-fluorophenyl)butan-1-one]
